Results on one molecule are retold here after patent US20220177569A1 (Novartis, published 2022).

The target in assay [1] is T1, Recombinant marmoset IL-18 (marmoset, UniProt U3CWC9 37-190).
T1 sequence: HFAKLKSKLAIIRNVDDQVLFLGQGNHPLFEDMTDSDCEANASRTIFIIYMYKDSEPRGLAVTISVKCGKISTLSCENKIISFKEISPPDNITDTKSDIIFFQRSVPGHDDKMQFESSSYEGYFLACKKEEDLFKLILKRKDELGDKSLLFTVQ
In words: cell-based or functional assay.

The target in assay [2] is T2, Recombinant marmoset IL-1β (marmoset, UniProt U3E018 117-268). In words: cell-based or functional assay.
Assay [3] deals with T3, Recombinant human IL-1β (human, UniProt P01584 117-269).
T3 construct: also called huIL-1β; IL-1b
In words: SET, simultaneous target binding, Assay B (both targets in serial dilutions in one mix). As to the method:
(§1) The plate was blocked with 50 μl/well blocking buffer (PBS containing 5% BSA) for 1 hour (h), at room temperature (RT). After washing (TBST, TBS containing 0.05% Tween 20), a volume of 30 μl/well of the equilibrated antigen- antibody mix was transferred from the polypropylene MTP to the coated MSD plate and incubated for 20 min at RT. After an additional wash step, 30 μl sulfo tag-labeled anti-IgG detection antibody (0.5 μg/ml) diluted in sample buffer were added to each well and incubated for 30 min at RT on a shaker. The MSD plate was washed and 35 μl/well MSD read buffer were added and incubated for 5 min at RT. Electrochemiluminescence (ECL) signals were generated and measured by the MSD Sector Imager 6000.
(§2) Assay B: The equilibration process (antibody/antigen mix) was performed with both targets in serial dilutions in one mix simultaneously (constant concentration of antibody […], highest antigen conc. see above). The same mix was then analyzed for its free antibody concentration on IL18 and IL-1β coated plates as described above.

In assay [4] the target is T2, Recombinant marmoset IL-1β. Described as above. The procedure: as §1, §2
The target of assay [5] is T4, Recombinant human IL-18 (human, UniProt Q14116 37-193).
T4 construct: also called huIL-18; hulL-18
Described as above. As to the method: as §1, §2

The target of assay [6] is T1, Recombinant marmoset IL-18. The assay is described as above. The procedure:
as §1, §2

For assay [7], the target named is T3, Recombinant human IL-1β. Nature of the assay: SET (solution equilibrium titration, MSD ECL), individual target binding. The procedure: as §1
In assay [8] the target is T2, Recombinant marmoset IL-1β. Described as above. As to the method: as §1
In assay [9] the target is T4, Recombinant human IL-18. The assay is described as above. As to the method: as §1
Assay [10] has as its target T1, Recombinant marmoset IL-18. The assay is described as above. The procedure: as §1
Assay [11] has as its target T4, Recombinant human IL-18. In words: SET, simultaneous target binding, Assay A (excess of the other target, IL-1β). As to the method: as §1, §2
In assay [12] the target is T1, Recombinant marmoset IL-18. The description is as above. The procedure: as §1, §2
Assay [13] deals with T3, Recombinant human IL-1β. Nature of the assay: cell-based or functional assay.
Assay [14] addresses T4, Recombinant human IL-18. In words: cell-based or functional assay.
In assay [15] the target is T3, Recombinant human IL-1β. In words: cell-based or functional assay. This is another data set of the same source.
For assay [16], the target named is T4, Recombinant human IL-18. Nature of the assay: cell-based or functional assay. This is another data set of the same source.
Assay [17] deals with T3, Recombinant human IL-1β. Nature of the assay: SET, simultaneous target binding, Assay A (excess of the other target, IL-18). The procedure:
as §1, §2

Assay [18] deals with T2, Recombinant marmoset IL-1β. Described as above. The procedure: as §1, §2

B1: bbmAb1, bispecific IgG1 with LALA silencing mutations, knob-into-hole, binding IL-1β and IL-18 (bispecific antibody)
heavy 1: not shown
light 1: not shown
heavy 2: not shown
light 2: EIVLTQSPDFQSVTPKEKVTITCRASQSIGSSLHWYQQKPDQSPKLLIKYASQSFSGVPSRFSGSGSGTDFTLTINSLEAEDAAAYYCHQSSSLPFTFGPGTKVDIKRTVAAPSVFIFPPSDEQLKSGTASVVCLLNNFYPREAKVQWKVDNALQSGNSQESVTEQDSKDSTYSLSSTLTLSKADYEKHKVYACEVTHQGLSSPVTKSFNRGEC
On to B1, for which the “IFNγ prod. Marmoset blood IC50 (marmoset IL-18 1 nM and human IL-12 10 ng/ml)” value in assay [1] was determined as 10 nM. Moreover, in [2], the “IL-6 prod. dermal fibroblasts IC50, Exp. B (18 pM recombinant marmoset IL-1β; marmoset cells by the reading of the header)” value came out at 0.364 nM. For the same molecule, the “IL-6 prod. dermal fibroblasts IC50, Exp. C (18 pM recombinant marmoset IL-1β; human cells by the reading of the header)” value in [2] was determined as 0.22 nM. For the same molecule, in assay [2], the “IL-6 prod. marmoset dermal fibroblasts IC50, Exp. A (18 pM recombinant marmoset IL-1β)” value came to 0.174 nM. Further, the Kd in the assay with Recombinant human IL-1β [3] turned out to be 0.0005 nM; in [4], 0.0006 nM; in the assay with Recombinant human IL-18 [5], 0.0195 nM; in assay [6], 0.0442 nM; with Recombinant human IL-1β [7], 0.0026 nM; in assay [8] it was 0.003 nM. For the same molecule, the Kd is 0.012 nM in the assay with Recombinant human IL-18 [9]; 0.033 nM in [10]; 0.0148 nM with Recombinant human IL-18 [11]; 0.0479 nM in assay [12]; 0.003 nM in the assay with Recombinant human IL-1β [17]; 0.002 nM in assay [18]. Further, the “IL-6 prod. PBMC IC50 (human PBMC stimulated with 60 pM recombinant human IL-1β)” value with Recombinant human IL-1β [13] came to 1.35 nM. For the same molecule, the “IL-6 prod. derm. fibrobl. IC50 (human dermal fibroblasts stimulated with 6 pM recombinant human IL-1β)” value in the assay with Recombinant human IL-1β [13] worked out at 0.136 nM. In addition, the “IFNγ prod. KG-1 cells IC50 (3 nM recombinant human IL-18 and 1 ng/ml human IL-12)” value with Recombinant human IL-18 [14] was found to be 0.071 nM. The “IFNγ prod. PBMC IC50 (3 nM recombinant human IL-18 and 1 ng/ml human IL-12)” value with Recombinant human IL-18 [14] was found to be 0.87 nM. For the same molecule, the “Inhibition of SEAP in HEK reporter cells stimulated simultaneously with IL-1β and IL-18, IC50” value with Recombinant human IL-1β [15] and with Recombinant human IL-18 [16] was 0.71 nM each time.
